# Yeast mating assay 1: variants of the scFv Ab-14

Antigen: PDVDLGDISGINAS, a 14-residue peptide of the SARS-CoV-2 spike HR2 region.

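The starting antibody came from a phage panning campaign against this peptide. In library AAYL49, one, two or three CDR residues were substituted; doubles and triples were drawn at random. The scFvs were displayed on barcoded MATa yeast, the peptide on MATalpha yeast. Binding brings cells together so that they mate, and sequencing counts the barcode pairs among the diploids. The ratio of observed to expected reads was calibrated, replicate by replicate, on BCL2-family standards whose Kd was known from biolayer interferometry. There are three technical replicates.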

The variants keep the light chain, the linker and the frameworks of Ab-14 (scFv order VH, a (GGGGS)3 linker, VL).
VH: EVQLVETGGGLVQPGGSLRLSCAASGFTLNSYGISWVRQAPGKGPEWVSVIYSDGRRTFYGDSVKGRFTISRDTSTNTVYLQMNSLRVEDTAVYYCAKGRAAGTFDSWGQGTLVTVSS
VL: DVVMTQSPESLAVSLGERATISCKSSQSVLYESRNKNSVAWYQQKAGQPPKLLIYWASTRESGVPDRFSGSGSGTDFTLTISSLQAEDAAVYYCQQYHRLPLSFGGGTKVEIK

The whole VH of each variant is written out.
The Kd shown is the geometric mean over detected replicates; a lower Kd is a better binder.
"no signal" marks a missing value. The strain was present, yet no cells mated with the target were sequenced in any replicate, which points to weak or no binding.
Nonspecific signal, from three strains lacking the peptide, appeared in 15% of pairings of library AAYL49, centred on 11 µM (5% of these signals below 680 nM); values are not corrected for it. For each scFv, signals with the empty controls are counted beside the result.

VH | Kd (apparent) | seen in | empty controls
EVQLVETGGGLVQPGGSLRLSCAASGFTWNSYAISWVRQAPGKGPEWVSVIYSDGRRTPYGDSVKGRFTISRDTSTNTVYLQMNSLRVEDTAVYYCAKGRAAGTFDSWGQGTLVTVSS | 1.4 µM | 1 of 3 | 1 of 9
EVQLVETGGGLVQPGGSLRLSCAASGFTLNTYNISWVRQAPGKGPEWVSVIYSDGRRTFYGDSVKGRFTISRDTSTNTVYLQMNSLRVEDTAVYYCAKGRAAGTFDSWGQGTLVTVSS | no signal | 0 of 3 | 1 of 9
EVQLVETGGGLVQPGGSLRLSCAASGFTLNSYGISWVRQAPGKGPEWVSVIYSDGRRTNYGDSVKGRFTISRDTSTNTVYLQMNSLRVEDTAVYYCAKGRALSTFDSWGQGTLVTVSS | no signal | 0 of 3 | 0 of 9
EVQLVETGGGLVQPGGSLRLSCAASGFTLNSYGISWVRQAPGKGPEWVSVIYSDGARTFYGDSVKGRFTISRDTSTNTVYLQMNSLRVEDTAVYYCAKGWAAGTFDSWGQGTLVTVSS | 15 nM | 3 of 3 | 1 of 9
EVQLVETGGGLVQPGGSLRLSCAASNFTLNSYGISWVRQAPGKGPEWVSVTYSDGRRQFYGDSVKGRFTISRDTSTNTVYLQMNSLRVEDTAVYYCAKGRAAGTFDSWGQGTLVTVSS | 11 µM | 1 of 3 | 1 of 9
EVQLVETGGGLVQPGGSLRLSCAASGFTLNSYQISWVRQAPGKGPEWVSVIYSDGFRTFYGDSVKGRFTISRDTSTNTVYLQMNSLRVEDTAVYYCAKGSAAGTFDSWGQGTLVTVSS | 4.7 µM | 2 of 3 | 2 of 9
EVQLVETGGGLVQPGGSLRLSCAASGITLNSYGISWVRQAPGKGPEWVSVIYSSGRRTFYGDSVKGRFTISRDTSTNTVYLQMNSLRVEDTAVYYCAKGRAAGSFDSWGQGTLVTVSS | 1.7 µM | 1 of 3 | 2 of 9
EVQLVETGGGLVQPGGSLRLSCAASGFTLHSYGISWVRQAPGKGPEWVSVWYSDGRRTFYGDSVKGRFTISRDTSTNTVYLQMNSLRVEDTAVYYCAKGTAAGTFDSWGQGTLVTVSS | no signal | 0 of 3 | 0 of 9
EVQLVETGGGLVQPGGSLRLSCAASGFTLVSYGISWVRQAPGKGPEWVSVIYSDARRTFYGDSVKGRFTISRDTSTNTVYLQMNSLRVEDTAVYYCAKGRAAGTGDSWGQGTLVTVSS | no signal | 0 of 3 | 1 of 9
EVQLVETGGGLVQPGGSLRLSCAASGFTLNSYGISWVRQAPGKGPEWVSVIYSVGRRTFYGDSVKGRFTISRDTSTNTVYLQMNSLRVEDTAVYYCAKGRAAGTFSSWGQGTLVTVSS | 6.3 µM | 1 of 3 | 4 of 9

Further variants, results first:

Kd (apparent) | seen in | empty controls | VH
41 µM | 1 of 3 | 0 of 9 | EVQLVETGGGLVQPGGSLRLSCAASGFYLNPYGISWVRQAPGKGPEWVSVIYSDGRETFYGDSVKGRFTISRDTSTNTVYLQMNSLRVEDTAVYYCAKGRAAGTFDSWGQGTLVTVSS
no signal | 0 of 3 | 1 of 9 | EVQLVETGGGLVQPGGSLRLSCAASGFTLNSYGISWVRQAPGKGPEWVSVIYSDGGRTFYGDSVKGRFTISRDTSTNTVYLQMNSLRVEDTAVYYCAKGRAAGTFAIWGQGTLVTVSS
59 µM | 2 of 3 | 0 of 9 | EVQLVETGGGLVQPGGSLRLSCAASGFTLNSYKISWVRQAPGKGPEWVSVIYSDGRRTSYGDSVKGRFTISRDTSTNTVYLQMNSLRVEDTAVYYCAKGRAAGTFDNWGQGTLVTVSS
1.7 µM | 1 of 3 | 0 of 9 | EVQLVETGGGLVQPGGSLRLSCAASGFTLNSYGISWVRQAPGKGPEWVSVEYSHGRRTFYGDSVKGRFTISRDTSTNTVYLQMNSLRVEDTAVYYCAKGRAAGTFDLWGQGTLVTVSS
41 µM | 3 of 3 | 6 of 9 | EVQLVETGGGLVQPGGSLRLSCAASGFTLNSNGGSWVRQAPGKGPEWVSVIYSDGRRTFYGDSVKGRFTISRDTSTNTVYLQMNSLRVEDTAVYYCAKGRAAGTFESWGQGTLVTVSS
22 nM | 3 of 3 | 0 of 9 | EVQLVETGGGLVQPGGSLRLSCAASGFTLNSYGISWVRQAPGKGPEWVSVIYSDGYRTFYDDSVKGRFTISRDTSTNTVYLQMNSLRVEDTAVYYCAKGRAAGTFWSWGQGTLVTVSS
no signal | 0 of 3 | 0 of 9 | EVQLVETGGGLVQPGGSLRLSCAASGFTLNSYGISWVRQAPGKGPEWVSVIYSHGRRTFGGDSVRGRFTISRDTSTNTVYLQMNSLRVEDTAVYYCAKGRAAGTFDSWGQGTLVTVSS
no signal | 0 of 3 | 0 of 9 | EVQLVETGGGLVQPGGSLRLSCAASFFTLNSYGISWVRQAPGKGPEWVSVIHSDGRRTFYGDSVKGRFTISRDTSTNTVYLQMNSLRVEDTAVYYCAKGRAASTFDSWGQGTLVTVSS
3.9 nM | 3 of 3 | 0 of 9 | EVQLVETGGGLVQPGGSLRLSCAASGFTLNSYGISWVRQAPGKGPEWVSVIYSDGRRTFYGDSVKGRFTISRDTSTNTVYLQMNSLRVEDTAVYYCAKGQATGTFDGWGQGTLVTVSS
no signal | 0 of 3 | 0 of 9 | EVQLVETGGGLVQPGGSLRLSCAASGFTLNSYGISWVRQAPGKGPEWVSVIYSDGRRTFNGDIVKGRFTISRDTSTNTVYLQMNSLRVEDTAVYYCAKGRAAGTFDSWGQGTLVTVSS
no signal | 0 of 3 | 4 of 9 | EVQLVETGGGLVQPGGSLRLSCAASGFTLNSYGISWVRQAPGKGPEWVSVICSDGRRRFYGDSVKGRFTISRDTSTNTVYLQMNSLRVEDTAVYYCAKGRAAGYFDSWGQGTLVTVSS

Picked from the list: the 3 lowest averages where every replicate gave a value.

VH	Kd (apparent)	seen in	empty controls
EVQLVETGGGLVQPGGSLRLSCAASGFTLNSYGISWVRQAPGKGPEWVSVIYSDGRRTFYGDSVKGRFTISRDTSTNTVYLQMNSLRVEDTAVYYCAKGQATGTFDGWGQGTLVTVSS	3.9 nM	3 of 3	0 of 9
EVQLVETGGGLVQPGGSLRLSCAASGFTLNSYGISWVRQAPGKGPEWVSVIYSDGARTFYGDSVKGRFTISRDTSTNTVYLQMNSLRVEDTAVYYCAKGWAAGTFDSWGQGTLVTVSS	15 nM	3 of 3	1 of 9
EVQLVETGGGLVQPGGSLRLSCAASGFTLNSYGISWVRQAPGKGPEWVSVIYSDGYRTFYDDSVKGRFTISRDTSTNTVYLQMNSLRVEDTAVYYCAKGRAAGTFWSWGQGTLVTVSS	22 nM	3 of 3	0 of 9

From the AlphaSeq antibody data of Engelhart et al. 2022 (doi:10.1038/s41597-022-01779-4), copy in the FLAb collection.